In ChEMBL document CHEMBL3727366, “Heterocyclic compounds for the treatment of stress-related conditions” (2013):

Legend:
[1] = target: T1, Prolactin-releasing peptide receptor (Homo sapiens, UniProt P49683); test: Displacement of [3H]-PrRP from human GPR10 receptor expressed in HEK293 cell membranes incubated for 90 mins by liquid scintillation counting method
T1 sequence (P49683 whole entry): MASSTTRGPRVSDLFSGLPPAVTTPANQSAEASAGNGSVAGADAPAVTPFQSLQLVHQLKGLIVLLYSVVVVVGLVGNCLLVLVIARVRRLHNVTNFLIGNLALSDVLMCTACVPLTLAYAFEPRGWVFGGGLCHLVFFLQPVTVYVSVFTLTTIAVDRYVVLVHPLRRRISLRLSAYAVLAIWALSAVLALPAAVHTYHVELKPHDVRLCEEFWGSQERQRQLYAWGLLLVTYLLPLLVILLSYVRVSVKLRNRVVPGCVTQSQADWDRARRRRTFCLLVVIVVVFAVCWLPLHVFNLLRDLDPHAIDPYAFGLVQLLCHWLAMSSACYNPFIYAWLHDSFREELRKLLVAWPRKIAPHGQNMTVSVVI

[2] = target: T1, Prolactin-releasing peptide receptor; test: Antagonist activity against human GPR10 receptor expressed in HEK293 cells assessed as inhibition of PrRP-induced intracellular calcium mobilization pre-incubated for 15 mins before PrRP addition by Fluo-8 dye based fluorescence imaging plate reader method; format: functional, cell-based

SMILES | Ki [1] [nM] | IC50 [2] [nM]
COn1c(N[C@@H](C)c2ccc(C(F)(F)F)cc2)nc2c(c1=O)CN(C(=O)c1cnc3ccccc3c1)CC2 | 8 | 286
CCOc1ccc(C(=O)N2CCc3nc(N[C@@H](C)c4ccc(C(F)(F)F)cc4)n(OC)c(=O)c3C2)cc1 | 9 | 1280
COn1c(N[C@@H](C)c2ccc(C(F)(F)F)cc2)nc2c(c1=O)CN(C(=O)c1ccc(Cl)c(C)c1)CC2 | 20 | 2220
COn1c(N[C@@H](C)c2ccc(C(F)(F)F)cc2)nc2c(c1=O)CN(C(=O)c1cc3cc(Cl)ccc3o1)CC2 | 12 | 824
COn1c(N[C@@H](C)c2ccc(C(F)(F)F)cc2)nc2c(c1=O)CN(C(=O)c1ccc3c(c1)CCC(=O)N3C)CC2 | 16 | –
COn1c(N[C@@H](C)c2ccc(C(F)(F)F)cc2)nc2c(c1=O)CN(C(=O)c1ccc(C#N)cc1)CC2 | 2 | 140
COc1cc(Cl)ccc1C(=O)N1CCc2nc(N[C@@H](C)c3ccc(C(F)(F)F)cc3)n(OC)c(=O)c2C1 | 18 | –
